The values that follow come from paper PMC2642980 (Bioorganic & medicinal chemistry letters, 2008).

This series concerns the target T1, adenosine deaminase (ADA) (Homo sapiens, UniProt P00813).
T1 sequence (P00813 1-363): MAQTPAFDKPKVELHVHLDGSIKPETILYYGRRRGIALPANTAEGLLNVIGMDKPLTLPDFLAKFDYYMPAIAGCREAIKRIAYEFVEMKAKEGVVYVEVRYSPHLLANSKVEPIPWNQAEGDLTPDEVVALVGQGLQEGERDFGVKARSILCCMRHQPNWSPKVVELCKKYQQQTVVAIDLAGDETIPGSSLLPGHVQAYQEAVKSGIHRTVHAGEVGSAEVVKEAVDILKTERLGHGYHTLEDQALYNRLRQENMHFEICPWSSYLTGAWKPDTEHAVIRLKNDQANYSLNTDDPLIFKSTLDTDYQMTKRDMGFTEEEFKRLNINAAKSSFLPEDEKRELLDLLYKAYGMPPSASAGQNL
In words: Deamination by adenosine deaminase. As to conditions: incubation with adenosine deaminase, 90 min.

In the case of “1-Beta-D-arabinofuranosyladenine [Vidarabine]”, the “Deamination by adenosine deaminase” value is recorded as “rapidly hydrolyzed”.
